From patent US20250032527A1, “MEDICAL USE OF N4-HYDROXY CITICOLINE COMPOUNDS” (IMMUNIC AG, priority 2021, published 2025) come the findings set out here.

Bounds are passed on as bounds.

The subject of assay [1] is SARS-COV-2. In kind it is cell-based.
Assay [2] relates to human rhinovirus 14 (HRV-14).
Assay [3] concerns influenza A (H1N1, California/07/2009).
Assay [4] concerns respiratory syncytial virus (RSV) A2.

In the case of `C[N+](C)(C)CCOP(=O)([O-])OP(=O)([O-])OC[C@H]1O[C@@H](n2ccc(NO)nc2=O)[C@H](O)[C@@H]1O.[Na+]` [Example 1, 2-(((((((2R,3S,4R,5R)-3,4-Dihydroxy-5-(4-(hydroxyamino)-2-oxopyrimidin-1 (2H)-yl)tetrahydrofuran-2-yl)methoxy) (hydroxy)phosphoryl)oxy)oxidophosphoryl)oxy)-N,N,N-trimethylethan-1-aminium mono sodium salt], the SI is recorded as greater than 10 in assay [1], greater than 5.8 in assay [2], 5.2 in assay [3] and 2.2 in assay [4].
